{
  "source": "PubChem BioAssay (NCI)",
  "note": "Where “and” joins values, the source holds several entries; their conditions need not be identical. Equal entries are not always repeated. This is a selection; strong and weak results do not stand in their true shares.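 48-hour exposure, single concentration, 96-well plates; percent growth endpoint where 0 means no net growth. Active: below 10.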 Calls of active or inactive are those of the source.",
  "data": [
    {"tested_on": "MOLT-4 leukemia", "experiment": "NCI-60 one-dose screen, 48 h (100 = growth as untreated, 0 = no growth, -100 = all killed)", "settings": "10 µM unless noted", "values": [
      {"molecule": "CC(Cl)CN(CC(C)Cl)C(=O)OCC(N)C(=O)O", "note": "(stereo not drawn)", "growth": "inactive: 97.3% and inactive: 105%"},
      {"molecule": "O=S1(=O)CC(Sc2ccccc2)[C@@H](Cl)C1", "note": "(stereo partly drawn)", "growth": "inactive: 99.1%"},
      {"molecule": "O=C(CCC(=O)Oc1c(Cl)cc([N+](=O)[O-])cc1[N+](=O)[O-])Oc1c(Cl)cc([N+](=O)[O-])cc1[N+](=O)[O-]", "growth": "inactive: 90.4%"},
      {"molecule": "COc1cccc([As]=O)c1", "note": "(stereo not drawn)", "growth": "active: -37.1%"},
      {"molecule": "c1cc(-c2nn[nH]n2)ccc1-c1nn[nH]n1", "growth": "inactive: 97.2%"},
      {"molecule": "CCN(CCCl)Cc1ccccc1", "growth": "inactive: 88.7%"},
      {"molecule": "CCCCOP(=O)(OCCCC)N1CCCC1C(=O)O", "note": "(stereo not drawn)", "growth": "inactive: 101%"},
      {"molecule": "CCN(CCCl)C1c2ccccc2-c2ccccc21", "growth": "inactive: 93.8%"},
      {"molecule": "CCOP(=O)(CCBr)OCC", "growth": "inactive: 103%"},
      {"molecule": "ClCCNCc1ccccc1", "growth": "inactive: 95.2%"},
      {"molecule": "O=[As]c1ccc(S(=O)(=O)Nc2ccccc2)cc1", "note": "(stereo not drawn)", "growth": "inactive: 25.2%"},
      {"molecule": "CCc1cc(O)c([N+](=O)[O-])c(C)c1[N+](=O)[O-]", "growth": "inactive: 105%"},
      {"molecule": "Clc1ccc(P(Cl)Cl)cc1", "growth": "inactive: 93.9%"},
      {"molecule": "O=[As](O)(c1ccc(O)cc1)c1ccccc1O", "growth": "inactive: 100%"},
      {"molecule": "CCCCCCC(C)OP(O)OC(C)CCCCCC", "note": "(stereo not drawn)", "growth": "inactive: 116%"},
      {"molecule": "NC(=O)Nc1ccc([As](=O)(O)O)cc1", "growth": "inactive: 101%"},
      {"molecule": "O=[N+]([O-])c1cc(Cl)cc([N+](=O)[O-])c1O", "growth": "inactive: 108%"},
      {"molecule": "ClP1Nc2cncnc2N1", "note": "(stereo not drawn)", "growth": "inactive: 110%"}
    ]},
    {"tested_on": "SR leukemia", "experiment": "NCI-60 one-dose screen, 48 h (100 = growth as untreated, 0 = no growth, -100 = all killed)", "settings": "10 µM unless noted", "values": [
      {"molecule": "COc1cc([N+](=O)[O-])c([N+](=O)[O-])cc1N", "growth": "inactive: 100%"},
      {"molecule": "Cc1ccc(Sc2ccc([N+](=O)[O-])cc2[N+](=O)[O-])c([N+](=O)[O-])c1", "growth": "active: 7.73%"},
      {"molecule": "CC(=O)Nc1ccc([As](=O)(O)O)cc1", "growth": "inactive: 102%"},
      {"molecule": "ClCCN1CCc2ccccc2C1", "growth": "inactive: 82.4%"},
      {"molecule": "CCOC(=O)NC(C)(CCC(C)(NC(=O)OCC)P(=O)(O)Nc1ncccn1)P(=O)(O)Nc1ncccn1", "note": "(stereo not drawn)", "growth": "inactive: 95.9% [100 µM]"},
      {"molecule": "CCSC(O)C(Cl)(Cl)Cl", "note": "(stereo not drawn)", "growth": "inactive: 99.4%"},
      {"molecule": "COP(=O)(OC)N1CC1c1ccccc1", "note": "(stereo not drawn)", "growth": "inactive: 61.6%"},
      {"molecule": "O=P1(N(CCCl)CCCl)OCCCS1", "note": "(stereo not drawn)", "growth": "inactive: 110%"},
      {"molecule": "CC[C@H](C)[C@@H]1NC(=O)/C(=C(\\C)O)C1=O", "growth": "inactive: 152%"},
      {"molecule": "CCN(CCCl)C(Cc1ccccc1)c1ccccc1", "note": "(stereo not drawn)", "growth": "inactive: 85.7%"},
      {"molecule": "[N-]=[N+]=NS(=O)(=O)c1ccc([N+](=O)[O-])cc1", "growth": "inactive: 103%"},
      {"molecule": "O=P1(N(CCCl)CCCl)OCCCN1CCCl", "note": "(stereo not drawn)", "growth": "inactive: 113%"},
      {"molecule": "O=C1CSC(C(Cl)(Cl)Cl)N1c1ccc(Cl)cc1", "note": "(stereo not drawn)", "growth": "inactive: 107%"},
      {"molecule": "ClC1(Cl)SC(Cl)(Cl)C(Cl)(Cl)C1(Cl)Cl", "growth": "inactive: 80.2%"},
      {"molecule": "Nc1ccc(CCCCOc2ccccc2)cc1", "growth": "inactive: 66.5%"},
      {"molecule": "CCN(CCCl)c1ccc(CCC(=O)O)cc1", "growth": "inactive: 84.2%"},
      {"molecule": "O=C(OC1CN2CCC1CC2)c1ccccc1", "note": "(stereo not drawn)", "growth": "inactive: 104%"},
      {"molecule": "Nc1nnc(N)nn1", "growth": "inactive: 105%"},
      {"molecule": "COP(OC)c1ccc(C)cc1", "growth": "inactive: 94.1%"},
      {"molecule": "CCOP(=O)(NC1CCCCC1)OCC", "growth": "inactive: 91.6%"},
      {"molecule": "CC(Cl)CN(CC(C)Cl)C(=O)OCC(N)C(=O)O", "note": "(stereo not drawn)", "growth": "inactive: 101% and inactive: 97.2%"},
      {"molecule": "O=S1(=O)CC(Sc2ccccc2)[C@@H](Cl)C1", "note": "(stereo partly drawn)", "growth": "inactive: 102%"},
      {"molecule": "O=C(CCC(=O)Oc1c(Cl)cc([N+](=O)[O-])cc1[N+](=O)[O-])Oc1c(Cl)cc([N+](=O)[O-])cc1[N+](=O)[O-]", "growth": "inactive: 101%"},
      {"molecule": "COc1cccc([As]=O)c1", "note": "(stereo not drawn)", "growth": "active: -26.2%"},
      {"molecule": "c1cc(-c2nn[nH]n2)ccc1-c1nn[nH]n1", "growth": "inactive: 109%"},
      {"molecule": "CCN(CCCl)Cc1ccccc1", "growth": "inactive: 94.4%"},
      {"molecule": "CCCCOP(=O)(OCCCC)N1CCCC1C(=O)O", "note": "(stereo not drawn)", "growth": "inactive: 109%"},
      {"molecule": "CCN(CCCl)C1c2ccccc2-c2ccccc21", "growth": "inactive: 91.3%"},
      {"molecule": "CCOP(=O)(CCBr)OCC", "growth": "inactive: 100% and inactive: 111%"},
      {"molecule": "ClCCNCc1ccccc1", "growth": "inactive: 97.4%"},
      {"molecule": "O=[As]c1ccc(S(=O)(=O)Nc2ccccc2)cc1", "note": "(stereo not drawn)", "growth": "active: -17%"},
      {"molecule": "CCc1cc(O)c([N+](=O)[O-])c(C)c1[N+](=O)[O-]", "growth": "inactive: 129%"},
      {"molecule": "Clc1ccc(P(Cl)Cl)cc1", "growth": "inactive: 93.9%"},
      {"molecule": "O=[As](O)(c1ccc(O)cc1)c1ccccc1O", "growth": "inactive: 104%"},
      {"molecule": "CCCCCCC(C)OP(O)OC(C)CCCCCC", "note": "(stereo not drawn)", "growth": "inactive: 98.2%"}
    ]}
  ]
}
